Assay results taken from US20260022143A1, “Cyclic Peptide Inhibitors of IL-23” (JANSSEN PHARMACEUTICA NV, priority 2022, published 2026).

Biological target: T1, IL-23R (Homo sapiens, UniProt Q5VWK5)
T1 construct: host or cells: HEK293
T1 sequence (Q5VWK5 24-629): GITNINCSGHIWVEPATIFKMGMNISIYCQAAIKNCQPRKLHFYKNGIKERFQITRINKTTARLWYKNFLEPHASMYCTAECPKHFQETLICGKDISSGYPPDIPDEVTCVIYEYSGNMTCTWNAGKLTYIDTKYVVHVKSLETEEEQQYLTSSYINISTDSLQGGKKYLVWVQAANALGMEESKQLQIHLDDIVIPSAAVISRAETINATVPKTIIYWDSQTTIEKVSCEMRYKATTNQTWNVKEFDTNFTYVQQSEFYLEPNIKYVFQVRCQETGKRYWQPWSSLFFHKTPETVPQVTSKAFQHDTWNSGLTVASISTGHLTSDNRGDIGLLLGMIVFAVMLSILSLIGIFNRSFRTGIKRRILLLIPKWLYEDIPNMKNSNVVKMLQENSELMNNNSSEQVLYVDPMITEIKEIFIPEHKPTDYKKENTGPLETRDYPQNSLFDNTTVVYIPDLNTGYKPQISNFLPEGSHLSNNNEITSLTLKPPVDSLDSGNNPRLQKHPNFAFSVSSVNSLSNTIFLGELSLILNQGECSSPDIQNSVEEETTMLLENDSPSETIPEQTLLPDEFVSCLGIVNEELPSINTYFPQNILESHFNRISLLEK
Experiment: IL23R Reporter Assay
Format: cell-based
Conditions: HEK293 cells containing IL-23R, IL-12RP1 and STAT-inducible firefly luciferase reporter; 10 ng/mL IL-23 (EC90); 5 h at 37° C.; read-out: IL23R Reporter Assay

Row | IC50 | SMILES
1 | 3.9 nM | CC(=O)N(C)CCCC[C@@H]1NC(=O)[C@H](Cc2c[nH]c3c(C(F)(F)F)cccc23)NC(=O)[C@H]([C@@H](C)O)NC(=O)[C@H](CC(=O)N(C)C)NC(=O)[C@@H](NC(=O)C(F)(F)F)C(C)(C)SSC(C)(C)[C@@H](C(=O)N[C@@H](Cc2ccc(OCCN)cc2)C(=O)N[C@@H](Cc2ccc3ccccc3c2)C(=O)NC2(C(=O)N[C@@H](CCCCN(C)C(C)=O)C(=O)N[C@@H](CC(N)=O)C(=O)N[C@@H](Cc3cccnc3)C(=O)N(C)CC(=O)N(C)C)CCOCC2)NC1=O [compound 94, CF3CO-Pen(3)-N(N(Me)2)-T-7CF3W-K(NMeAc)-Pen(3)-AEF-2Nal-THP-K(NMeAc)-N-3Pya-Sar-CON(Me)2]
2 | 4.8 nM | CC(=O)N(C)CCCC[C@@H]1NC(=O)[C@H](Cc2c[nH]c3c(C(F)(F)F)cccc23)NC(=O)[C@H]([C@@H](C)O)NC(=O)[C@H](CC(=O)N(C)C)NC(=O)[C@@H](NC(=O)C(F)(F)F)C(C)(C)SSC(C)(C)[C@@H](C(=O)N[C@@H](Cc2ccc(OCCN(C)C)cc2)C(=O)N[C@@H](Cc2ccc3ccccc3c2)C(=O)NC2(C(=O)N[C@@H](CCCCN(C)C(C)=O)C(=O)N[C@@H](CC(N)=O)C(=O)N[C@@H](Cc3cccnc3)C(=O)N(C)CC(=O)N(C)C)CCOCC2)NC1=O [compound 95, CF3CO-Pen(3)-N(N(Me)2)-T-7CF3W-K(NMeAc)-Pen(3)-AEF(N(Me)2)-2Nal-THP-K(NMeAc)-N-3Pya-Sar-CON(Me)2]
3 | 3.9 nM | CC(=O)NCCCC[C@@H]1NC(=O)[C@H](Cc2c[nH]c3c(C)cccc23)NC(=O)[C@H]([C@@H](C)O)NC(=O)[C@H](CC(N)=O)NC(=O)[C@@H](NC(=O)CCCCC[N+](C)(C)C)C(C)(C)SSC(C)(C)[C@@H](C(=O)N[C@@H](Cc2ccc(OCCN)cc2)C(=O)N[C@@H](Cc2ccc3ccccc3c2)C(=O)NC2(C(=O)N[C@@H](CNC(C)=O)C(=O)N[C@@H](CC(N)=O)C(=O)N[C@@H](Cc3cccnc3)C(=O)N(C)CC(N)=O)CCOCC2)NC1=O [compound 99]
4 | 1.7 nM | COCCOCCNC(=O)CN(C)C(=O)[C@H](Cc1cccnc1)NC(=O)[C@H](CC(N)=O)NC(=O)[C@H](CCC(=O)O)NC(=O)C1(NC(=O)[C@H](Cc2ccc3ccccc3c2)NC(=O)[C@H](Cc2ccc(OCCN)cc2)NC(=O)[C@H]2NC(=O)[C@H](CCCCNC(C)=O)NC(=O)[C@H](Cc3c[nH]c4c(C)cccc34)NC(=O)[C@H]([C@@H](C)O)NC(=O)[C@H](CC(N)=O)NC(=O)[C@@H](NC(C)=O)C(C)(C)SSC2(C)C)CCOCC1 [compound 116]
5 | 2.2 nM | CC(=O)N[C@@H]1C(=O)N[C@@H](CC(=O)N(C)C)C(=O)N[C@@H]([C@@H](C)O)C(=O)N[C@@H](Cc2c[nH]c3c(C)cccc23)C(=O)N[C@@H](CCCC[N+](C)(C)C)C(=O)N[C@H](C(=O)N[C@@H](Cc2ccc(OCCN(C)C)cc2)C(=O)N[C@@H](Cc2ccc3ccccc3c2)C(=O)NC2(C(=O)N[C@@H](CCCC[N+](C)(C)C)C(=O)N[C@@H](CC(N)=O)C(=O)N[C@@H](Cc3cccnc3)C(=O)N(C)CC(=O)N(C)C)CCOCC2)C(C)(C)SSC1(C)C [compound 117, MeCO-Pen(3)-N(N(Me)2)-T-7MeW-K(Me)3-Pen(3)-AEF(N(Me)2)-2Nal-THP-K(Me)3-N-3Pya-Sar-CON(Me)2]
6 | 2.3 nM | CC(=O)N[C@@H]1C(=O)N[C@@H](CC(=O)N(C)C)C(=O)N[C@@H]([C@@H](C)O)C(=O)N[C@@H](Cc2c[nH]c3c(C)cccc23)C(=O)N[C@@H](CCC(=O)N(C)C)C(=O)N[C@H](C(=O)N[C@@H](Cc2ccc(OCCN(C)C)cc2)C(=O)N[C@@H](Cc2ccc3ccccc3c2)C(=O)NC2(C(=O)N[C@@H](CCC(=O)O)C(=O)N[C@@H](CC(N)=O)C(=O)N[C@@H](Cc3cccnc3)C(=O)N(C)CC(=O)N(C)C)CCOCC2)C(C)(C)SSC1(C)C [compound 120, MeCO-Pen(3)-N(N(Me)2)-T-7MeW-Q(N(Me)2)-Pen(3)-AEF(N(Me)2)-2Nal-THP-E-N-3Pya-Sar-CON(Me)2]
7 | 1.9 nM | CC(=O)NC[C@H](NC(=O)C1(NC(=O)[C@H](Cc2ccc3ccccc3c2)NC(=O)[C@H](Cc2ccc(OCCN(C)C)cc2)NC(=O)[C@H]2NC(=O)[C@H](CCCCN(C)C(C)=O)NC(=O)[C@H](Cc3c[nH]c4c(C)cccc34)NC(=O)[C@H]([C@@H](C)O)NC(=O)[C@H](CC(=O)N(C)C)NC(=O)[C@@H](NC(=O)CCCCC[N+](C)(C)C)C(C)(C)SSC2(C)C)CCOCC1)C(=O)N[C@@H](CC(N)=O)C(=O)N[C@@H](Cc1cccnc1)C(=O)N(C)CC(=O)N(C)C [compound 133, 5cpaCO-Pen(3)-N(N(Me)2)-T-7MeW-K(NMeAc)-Pen(3)-AEF(N(Me)2)-2Nal-THP-Dap(Ac)-N-3Pya-Sar-CON(Me)2]
8 | 3.6 nM | Cc1cccc2c(C[C@@H]3NC(=O)[C@H]([C@@H](C)O)NC(=O)[C@H](CC(N)=O)NC(=O)[C@@H](NC(=O)CCOCCOCC[N+](C)(C)C)C(C)(C)SSC(C)(C)[C@@H](C(=O)N[C@@H](Cc4ccc(OCCN)cc4)C(=O)N[C@@H](Cc4ccc5ccccc5c4)C(=O)NC4(C(=O)N[C@@H](CCC(=O)N(C)C)C(=O)N[C@@H](CC(N)=O)C(=O)N[C@@H](Cc5cccnc5)C(=O)N(C)CC(N)=O)CCOCC4)NC(=O)[C@H](CCC(=O)N(C)C)NC3=O)c[nH]c12 [compound 137, cPEG3aCO-Pen(3)-N-T-7MeW-Q(N(Me)2)-Pen(3)-AEF-2Nal-THP-Q(N(Me)2)-N-3Pya-Sar-CONH2]
9 | 2.7 nM | CC(=O)N[C@@H]1C(=O)N[C@@H](CC(N)=O)C(=O)N[C@@H]([C@@H](C)O)C(=O)N[C@@H](Cc2c[nH]c3c(C)cccc23)C(=O)N[C@@H](CCC(=O)N(C)C)C(=O)N[C@H](C(=O)N[C@@H](Cc2ccc(OCCN)cc2)C(=O)N[C@@H](Cc2ccc3ccccc3c2)C(=O)NC2(C(=O)N[C@@H](CCC(=O)N(C)C)C(=O)N[C@@H](CC(N)=O)C(=O)N[C@@H](Cc3cccnc3)C(=O)N(C)CC(N)=O)CCOCC2)C(C)(C)SSC1(C)C [compound 138]
10 | 3.3 nM | CC(=O)N(C)CCCC[C@@H]1NC(=O)[C@H](Cc2c[nH]c3c(C)cccc23)NC(=O)[C@H]([C@@H](C)O)NC(=O)[C@H](CC(=O)N(C)C)NC(=O)[C@@H](NC(=O)CCOCCOCC[N+](C)(C)C)C(C)(C)SSC(C)(C)[C@@H](C(=O)N[C@@H](Cc2ccc(OCCN)cc2)C(=O)N[C@@H](Cc2ccc3ccccc3c2)C(=O)NC2(C(=O)N[C@@H](CCC(=O)N(C)C)C(=O)N[C@@H](CC(N)=O)C(=O)N[C@@H](Cc3cccnc3)C(=O)N(C)CC(N)=O)CCOCC2)NC1=O [compound 150, cPEG3aCO-Pen(3)-N(N(Me)2)-T-7MeW-K(NMeAc)-Pen(3)-AEF-2Nal-THP-Q(N(Me)2)-N-3Pya-Sar-CONH2]
11 | 2.4 nM | Cc1cccc2c(C[C@@H]3NC(=O)[C@H]([C@@H](C)O)NC(=O)[C@H](CC(=O)N(C)C)NC(=O)[C@@H](NC(=O)CCOCCOCC[N+](C)(C)C)C(C)(C)SSC(C)(C)[C@@H](C(=O)N[C@@H](Cc4ccc(OCCN(C)C)cc4)C(=O)N[C@@H](Cc4ccc5ccccc5c4)C(=O)NC4(C(=O)N[C@@H](CCC(=O)N(C)C)C(=O)N[C@@H](CC(N)=O)C(=O)N[C@@H](Cc5cccnc5)C(=O)N(C)CC(=O)N(C)C)CCOCC4)NC(=O)[C@H](CCC(=O)N(C)C)NC3=O)c[nH]c12 [compound 154, cPEG3aCO-Pen(3)-N(N(Me)2)-T-7MeW-Q(N(Me)2)-Pen(3)-AEF(N(Me)2)-2Nal-THP-Q(N(Me)2)-N-3Pya-Sar-CON(Me)2]
12 | 2.2 nM | CC(=O)NCCCC[C@@H]1NC(=O)[C@H](Cc2c[nH]c3c(C)cccc23)NC(=O)[C@H]([C@@H](C)O)NC(=O)[C@H](CC(N)=O)NC(=O)[C@@H](NC(C)=O)C(C)(C)SSC(C)(C)[C@@H](C(=O)N[C@@H](Cc2ccc(OCCN)cc2)C(=O)N[C@@H](Cc2ccc3ccccc3c2)C(=O)NC2(C(=O)N[C@@H](CCCCNC(C)=O)C(=O)N[C@@H](CC(N)=O)C(=O)N[C@@H](Cc3cccnc3)C(=O)N(C)CC(=O)NCCOCCOCCOCCOCC[N+](C)(C)C)CCOCC2)NC1=O [compound 155]
13 | 3.9 nM | COCCOCCOCCOCCOCCOCCC(=O)N(C)CC[C@@H]1NC(=O)[C@H](Cc2c[nH]c3c(C)cccc23)NC(=O)[C@H]([C@@H](C)O)NC(=O)[C@H](CC(=O)N(C)C)NC(=O)[C@@H](NC(C)=O)C(C)(C)SSC(C)(C)[C@@H](C(=O)N[C@@H](Cc2ccc(OCCN)cc2)C(=O)N[C@@H](Cc2ccc3ccccc3c2)C(=O)NC2(C(=O)N[C@@H](CCC(=O)O)C(=O)N[C@@H](CC(N)=O)C(=O)N[C@@H](Cc3cccnc3)C(=O)N(C)CC(=O)N(C)C)CCOCC2)NC1=O [compound 158, MeCO-Pen(3)-N(N(Me)2)-T-7MeW-Dab(NMeCOmPEG6)-Pen(3)-AEF-2Nal-THP-E-N-3Pya-Sar-CON(Me)2]
14 | 2.4 nM | CC(=O)N(C)CCCC[C@@H]1NC(=O)[C@H](Cc2c[nH]c3c(C)cccc23)NC(=O)[C@H]([C@@H](C)O)NC(=O)[C@H](CC(=O)N(C)C)NC(=O)[C@@H](NC(=O)CCOCCOCC[N+](C)(C)C)C(C)(C)SSC(C)(C)[C@@H](C(=O)N[C@@H](Cc2ccc(OCCCCC[N+](C)(C)C)cc2)C(=O)N[C@@H](Cc2ccc3ccccc3c2)C(=O)NC2(C(=O)N[C@@H](CCCCN(C)C(C)=O)C(=O)N[C@@H](CC(N)=O)C(=O)N[C@@H](Cc3cccnc3)C(=O)N(C)CC(=O)N(C)C)CCOCC2)NC1=O [compound 164, cPEG3aCO-Pen(3)-N(N(Me)2)-T-7MeW-K(NMeAc)-Pen(3)-TMAPF-2Nal-THP-K(NMeAc)-N-3Pya-Sar-CON(Me)2]
